# Binding of CDR-mutated scFvs to a peptide of the spike HR2 region

All variants were tested on one target, the spike HR2 peptide PDVDLGDISGINAS (SARS-CoV-2).

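The starting antibody came from a phage panning campaign against this peptide. The library (AAYL52) carries one to three amino acid substitutions per variant, with no insertions or deletions. Affinity was read by AlphaSeq, a pooled yeast mating assay with surface-displayed partners. Binding brings cells together so that they mate, and sequencing counts the barcode pairs among the diploids. Each replicate has its own calibration line, from reference interactions of the BCL2 family. The assay was run in three technical replicates.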

Each scFv is VH, three GGGGS repeats, VL, as in the parent Ab-95, and differs from it in the CDRs of the light chain only.
VH: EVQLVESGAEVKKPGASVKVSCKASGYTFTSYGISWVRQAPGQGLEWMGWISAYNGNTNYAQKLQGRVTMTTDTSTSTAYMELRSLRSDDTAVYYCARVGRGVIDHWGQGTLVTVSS
VL: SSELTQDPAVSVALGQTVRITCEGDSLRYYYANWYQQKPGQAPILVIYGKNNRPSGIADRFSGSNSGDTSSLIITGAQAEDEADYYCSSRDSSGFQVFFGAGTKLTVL

The parent's light chain CDRs are EGDSLRYYYAN, GKNNRPS, SSRDSSGFQVF; each variant's own CDRs replace them letter for letter. Numbers give log10(Kd / nM), so 0 is 1 nM and 3 is 1 µM. Smaller is tighter. A mean of the replicates is given; it leaves out those without a signal. An entry "ND" has no value in the source: the pair was not observed among the diploids in that replicate. This suggests poor binding but is not conclusive. As a blank, each scFv also met three strains without target: over library AAYL52, 28% of these pairings were detected, typically at 3.91 and seldom below 2.90. For each scFv, signals with the empty controls are counted beside the result, with their mean in brackets.

| CDR-L1 | CDR-L2 | CDR-L3 | replicates, log10 nM | mean, log10 nM | control signals |
|---|---|---|---|---|---|
| EGDSCRYYYAN | KKNNRPS | SSRDSSGFQVF | ND ND ND | ND | 3/9 (3.54) |
| EGDSLRIMYAN | GKNNRPS | SSRDSSTFQVF | 3.37 ND ND | 3.37 | 1/9 (4.34) |
| EGDHNRYNYAN | GKNNRPS | SSRDSSGFQVF | 1.86 1.51 1.33 | 1.57 | 4/9 (3.23) |
| EGDSLRYYYAN | GFNNRPS | SSRDSSLFEVF | 4.64 4.50 ND | 4.57 | 0/9 |
| EGDSLRMYYAE | GKNNRPS | SSNDSSGFQVF | ND ND 4.13 | 4.13 | 4/9 (4.24) |
| EGDSLRYYEAN | GKNNRMS | SSRRSSGFQVF | 1.63 1.86 1.03 | 1.51 | 3/9 (3.49) |
| EGDSCRYYYAN | GKNNRPS | SSDGSSGFQVF | 3.91 ND 4.16 | 4.03 | 2/9 (4.38) |
| EGDSLRYEYAN | GKNNRPS | SSRKSSGFQVF | 2.73 5.54 3.05 | 3.77 | 0/9 |
| EGDSLRYYYAN | QKNTRPS | SSRKSSGFQVF | 3.82 ND ND | 3.82 | 3/9 (4.05) |
| EGDSGRSYYAN | GKNNRPS | SWRDSSGFQVF | 3.42 2.43 4.06 | 3.31 | 1/9 (3.48) |
| EGDSLRYYYYN | GKNNRPS | SSMDSSVFQVF | ND 3.95 ND | 3.95 | 3/9 (3.68) |
| EGDSLRYMYAN | GKNNRPS | SYRDSVGFQVF | 1.40 1.43 1.25 | 1.36 | 3/9 (3.20) |
| ETDSYRYYYAN | GKNNRPS | SSRHSSGFQVF | ND ND ND | ND | 0/9 |
| EVSSLRYYYAN | GKNNRPS | SVRDSSGFQVF | 2.45 2.67 2.28 | 2.47 | 1/9 (3.73) |
| DGDKLRYYYAN | GKNNRPS | SSRDFSGFQVF | ND 3.72 ND | 3.72 | 4/9 (4.20) |
| EGCSLTYYYAN | GKTNRPS | SSRDSSGFQVF | ND ND ND | ND | 3/9 (4.34) |
| ERDSLRYYYAN | GKNNRPD | SSRDSSGTQVF | 2.76 2.63 2.21 | 2.53 | 3/9 (3.96) |
| EGDSLRMYYAN | GKNNRPS | SHEDSSGFQVF | ND ND ND | ND | 0/9 |
| EGDSLRYYYAN | GKFNRPS | SSRDSSGFQEF | ND 2.88 ND | 2.88 | 3/9 (3.54) |
| EGDSLRYYYAN | GKNNRPS | LSRDADGFQVF | 3.68 4.38 ND | 4.03 | 3/9 (3.36) |
| EGGPLRYYYAN | GKNNRPS | SSRDSYGFQVF | 3.06 2.64 3.30 | 3.00 | 1/9 (5.02) |
| EGDSLRYYYAN | GKNNRDM | SSRDSQGFQVF | 4.36 ND 4.06 | 4.21 | 3/9 (4.30) |
| EGDSLRYYYMN | GKNLRPS | SSRDSSGFLVF | ND 5.52 4.28 | 4.90 | 4/9 (3.79) |
| EGDSLRYYYAN | GKPNRPS | SSRDSSGQQVF | 4.02 4.34 ND | 4.18 | 2/9 (3.43) |
| EGDSLREYYAN | GKNNLPS | SSRDSLGFQVF | ND ND 2.83 | 2.83 | 3/9 (3.81) |
| ECDSLRYDYAN | GKNNRPS | SSRDSSGFQVF | 2.58 2.65 2.51 | 2.58 | 5/9 (4.40) |
| EGDVLRYEYAN | PKNNRPS | SSRDSSGFQVF | ND ND ND | ND | 3/9 (4.16) |
| EGISLRIYYAN | GKNNRPS | SSRDSWGFQVF | 1.82 1.82 1.34 | 1.66 | 1/9 (5.24) |
| EGDNLRYYYAN | GKNNRPS | SSRASSGFVVF | 4.04 ND ND | 4.04 | 0/9 |
| EGDSLRYYYAN | GSNNRPS | SSRDPSGFQSF | 3.79 3.40 3.89 | 3.70 | 3/9 (4.04) |
| EGDYLRYYYAN | IKNNRPS | SSRDSSGFQVN | ND ND 4.10 | 4.10 | 1/9 (3.76) |
| EGDSLRYYYKN | GKNNRPQ | SSRDSSGFRVF | 3.41 ND 3.76 | 3.59 | 2/9 (3.12) |
| EGDSLRYYYAN | GKNNRPS | HSRDSRGFQVF | 3.41 ND ND | 3.41 | 0/9 |
| EGDSLRYYYAN | GWNNRKS | GSRDSSGFQVF | ND ND ND | ND | 3/9 (3.72) |
| EGDSLRYIYAN | GKFNRPS | SSRDSGGFQVF | 4.57 4.37 3.02 | 3.99 | 5/9 (3.46) |
| EGDSLSYYYAN | GKNNRPS | SSRDSSGFQVK | 2.84 2.93 2.70 | 2.82 | 4/9 (3.86) |
| EPDSLRYPYAN | GFNNRPS | SSRDSSGFQVF | 3.48 ND ND | 3.48 | 3/9 (4.36) |
| EGDSLPYMYAN | GKNNRPS | SSRDSSVFQVF | 4.03 ND ND | 4.03 | 2/9 (3.42) |
| EDDSLRYYYAN | GKNVRPS | SSRDSSGFQVF | 3.18 3.57 3.34 | 3.36 | 3/9 (3.94) |
| EGDSLRYYYAL | GKNNRPS | SSIQSSGFQVF | 4.77 ND ND | 4.77 | 0/9 |
| EGDSLQYYYAN | GFNNRPS | SSRMSSGFQVF | 4.42 4.92 3.13 | 4.16 | 3/9 (3.99) |
| EGDSLRYYYAN | GKLNRPS | SSRDSSGFQVG | 3.59 5.91 3.62 | 4.37 | 4/9 (4.51) |

Excerpt, the first 4 entries:

CDR-L1,CDR-L2,CDR-L3,"replicates, log10 nM","mean, log10 nM",control signals
EGDSCRYYYAN,KKNNRPS,SSRDSSGFQVF,ND ND ND,ND,3/9 (3.54)
EGDSLRIMYAN,GKNNRPS,SSRDSSTFQVF,3.37 ND ND,3.37,1/9 (4.34)
EGDHNRYNYAN,GKNNRPS,SSRDSSGFQVF,1.86 1.51 1.33,1.57,4/9 (3.23)
EGDSLRYYYAN,GFNNRPS,SSRDSSLFEVF,4.64 4.50 ND,4.57,0/9

Values reported by Engelhart et al. 2022, doi:10.1038/s41597-022-01779-4 (FLAb copy).